In patent US20240082221A1, “COMPOSITIONS AND METHODS FOR THE IDENTIFICATION OF COMPOUNDS THAT PROTECT AGAINST LIPOFUSCIN CYTOTOXICITY” (priority 2021, published 2024):

System: ARPE-19 cells
Conditions: necrosis without light, apoptosis with blue-light
Experimental: Cell Viability Assay. […] 1× AlamarBlue solution prepared in OptiMEM was used to replace the media supernatant and the plate's fluorescence was determined at 555 nm excitation/585 nm emission with a SpectraMax M (Molecular Devices, CA, USA), after 1 h. […] The exact timing of appearance of far-red (DRAQ7=plasma membrane leakage) and blue (NUC405=caspase 3 activation) fluorescence signals was critical to differentiate apoptosis and necrosis from secondary events, such as membrane damage and generalized proteolytic activation during the late phase of apoptosis and necrosis, respectively.
Real time monitoring of necrotic and apoptotic cell-death. Cell-death assay to study Lipofuscin's dark toxicity was performed. 90% confluent ARPE-19 or hfRPE were incubated overnight in serum free media supplemented with indicated LB concentration. Viability was assessed at 24 hrs by AlamarBlue®, or microscopy with NUC405/DRAQ7. Real time monitoring of necrotic (red) and apoptotic (blue) cell-death was performed by automated fluorescence microscopy. The exact timing of appearance of far-red (DRAQ7=plasma membrane leakage) and blue (NUC405=caspase 3 activation) fluorescence signals was critical to differentiate apoptosis and necrosis from secondary events, such as membrane damage and generalized proteolytic activation during the late phase of apoptosis and necrosis, respectively.

For all-trans-retinal dimers [ATRD], the “potency as inducer of necrosis and apoptosis” value was “less potent inducer of necrosis and apoptosis than A2E”.
